Structures can show the parent of a compound that is named as a salt.
Target: T1, recombinant human LTA4 hydrolase (rhLTAH) (Homo sapiens, UniProt P09960)
T1 construct: made in house; host or cells: Spodoptera frugiperda Sf-9 cells (baculovirus)
T1 sequence (P09960 1-611): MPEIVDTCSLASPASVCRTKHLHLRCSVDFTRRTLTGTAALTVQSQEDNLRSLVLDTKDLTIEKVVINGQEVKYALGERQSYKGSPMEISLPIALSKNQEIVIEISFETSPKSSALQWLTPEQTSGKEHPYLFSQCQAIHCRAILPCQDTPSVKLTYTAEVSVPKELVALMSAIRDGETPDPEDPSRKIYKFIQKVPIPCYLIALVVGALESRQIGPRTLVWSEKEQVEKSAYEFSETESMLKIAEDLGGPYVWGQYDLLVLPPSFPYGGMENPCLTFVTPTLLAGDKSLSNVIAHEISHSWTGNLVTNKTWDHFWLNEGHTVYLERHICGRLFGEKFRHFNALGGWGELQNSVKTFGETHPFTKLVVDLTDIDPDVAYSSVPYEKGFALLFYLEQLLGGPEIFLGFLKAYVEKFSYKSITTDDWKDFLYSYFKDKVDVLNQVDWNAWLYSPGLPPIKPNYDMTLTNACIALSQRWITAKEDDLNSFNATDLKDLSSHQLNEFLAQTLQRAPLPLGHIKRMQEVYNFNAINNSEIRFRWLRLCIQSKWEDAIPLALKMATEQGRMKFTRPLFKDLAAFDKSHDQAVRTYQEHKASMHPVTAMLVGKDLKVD
Experiment: Recombinant Human LTA Hydrolase Assay for LTA Hydrolase Inhibitor Activity
Format: biochemical
Conditions: 10 min preincubation with 250 ng enzyme, LTA4 substrate, room temperature, pH 7.4

IC50: 430 nM
Compound: CCN(CCCOc1ccc(Cc2ccsc2)cc1)CCC(=O)NS(C)(=O)=O [Example 15, 3-[Ethyl[3-[4-[(3-thienyl)methyl]phenoxy]propyl]-amino]-N-(methylsulfonyl)propanamide monohydrochloride]
